Test results reported in US12245576B2, “Method for genetic manipulation of sap-feeding insects” (The Regents of the University of California, priority 2018, dated 2025).

Experiments:
Brassica leaf-discs = experiment: Phytohormone treatment, calli and root production from Brassica leaf-discs
Description: (§1) • 1. Leaf-discs (2.7-cm in diameter) were cut from Brassica leaves (Leaf #2, leaf #3) or eggplant leaves (see above). • 2. Three leaf-discs were placed on a specific media (see Tables 6 and 7 below), covered with a mesh lid, sealed with parafilm, and incubated agar side up. • 3. The discs were placed in Incubator B (higher humidity, higher light). Plates were covered with two fabric screens. • 4. Discs were assessed daily for leaf-disc growth, disc color, fungal contamination of agar or disc, agar depth (to determine date of transfer), and presence of calli or roots (number of root sites and number of roots/site). • 5. Discs were transferred to fresh media as needed (usually 7-8 d).

eggplant leaf-discs = experiment: Phytohormone treatment, root production from eggplant leaf-discs; conditions: IBA 0.1, 1.0 and 10 mg/L in GB+GBV
Description: as §1

Indole butyric acid
time on IBA plates that may be sufficient to accelerate root production (Brassica leaf-discs; 10 mg/L IBA plates): 1 days | effect on production of roots from Brassica leaf-discs (Brassica leaf-discs; GB+GBV with IBA 0.1-10 mg/L vs 0 (control)): enhanced and accelerated the production of roots | effect on root production in eggplant (eggplant leaf-discs): did not significantly enhance or accelerate root production
